The results in this text go back to US20090143391A1, “Aryl and heteroaryl fused imidazo [1,5-a] pyrazines as inhibitors of phosphodiesterase 10” (priority 2007, published 2009).

Chains of the proteins cited; added tags and fusions are not shown. Residues count along the entry.
UniProt A0A287B941, 1-1069: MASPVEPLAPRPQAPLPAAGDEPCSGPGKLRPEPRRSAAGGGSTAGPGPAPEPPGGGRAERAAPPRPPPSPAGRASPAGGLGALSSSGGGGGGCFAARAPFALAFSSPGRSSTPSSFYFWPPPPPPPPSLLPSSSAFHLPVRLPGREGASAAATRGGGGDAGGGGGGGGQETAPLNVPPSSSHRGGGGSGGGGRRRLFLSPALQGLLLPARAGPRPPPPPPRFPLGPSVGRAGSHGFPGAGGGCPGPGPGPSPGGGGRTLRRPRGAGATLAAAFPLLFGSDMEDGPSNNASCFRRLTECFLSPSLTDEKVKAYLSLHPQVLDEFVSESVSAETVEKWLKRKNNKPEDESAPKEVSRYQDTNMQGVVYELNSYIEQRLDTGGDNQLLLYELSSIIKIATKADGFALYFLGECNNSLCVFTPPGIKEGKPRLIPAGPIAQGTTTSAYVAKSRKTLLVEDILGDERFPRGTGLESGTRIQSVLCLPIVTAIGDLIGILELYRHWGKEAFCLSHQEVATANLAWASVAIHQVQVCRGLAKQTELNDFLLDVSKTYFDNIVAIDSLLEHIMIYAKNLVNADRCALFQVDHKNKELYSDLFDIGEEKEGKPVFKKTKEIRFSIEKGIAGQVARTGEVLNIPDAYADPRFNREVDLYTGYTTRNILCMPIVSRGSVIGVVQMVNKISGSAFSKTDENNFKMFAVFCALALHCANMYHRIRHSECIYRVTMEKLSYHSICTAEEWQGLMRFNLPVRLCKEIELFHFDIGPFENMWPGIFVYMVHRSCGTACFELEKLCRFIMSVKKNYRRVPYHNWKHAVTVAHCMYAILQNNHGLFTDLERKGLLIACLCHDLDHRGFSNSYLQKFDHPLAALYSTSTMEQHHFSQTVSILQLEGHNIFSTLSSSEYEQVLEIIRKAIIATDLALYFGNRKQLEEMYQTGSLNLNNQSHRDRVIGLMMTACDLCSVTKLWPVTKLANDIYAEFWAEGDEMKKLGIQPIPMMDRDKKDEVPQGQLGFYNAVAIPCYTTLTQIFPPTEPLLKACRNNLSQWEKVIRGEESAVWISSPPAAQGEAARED
UniProt Q9Y233, 1-779 isoform 1: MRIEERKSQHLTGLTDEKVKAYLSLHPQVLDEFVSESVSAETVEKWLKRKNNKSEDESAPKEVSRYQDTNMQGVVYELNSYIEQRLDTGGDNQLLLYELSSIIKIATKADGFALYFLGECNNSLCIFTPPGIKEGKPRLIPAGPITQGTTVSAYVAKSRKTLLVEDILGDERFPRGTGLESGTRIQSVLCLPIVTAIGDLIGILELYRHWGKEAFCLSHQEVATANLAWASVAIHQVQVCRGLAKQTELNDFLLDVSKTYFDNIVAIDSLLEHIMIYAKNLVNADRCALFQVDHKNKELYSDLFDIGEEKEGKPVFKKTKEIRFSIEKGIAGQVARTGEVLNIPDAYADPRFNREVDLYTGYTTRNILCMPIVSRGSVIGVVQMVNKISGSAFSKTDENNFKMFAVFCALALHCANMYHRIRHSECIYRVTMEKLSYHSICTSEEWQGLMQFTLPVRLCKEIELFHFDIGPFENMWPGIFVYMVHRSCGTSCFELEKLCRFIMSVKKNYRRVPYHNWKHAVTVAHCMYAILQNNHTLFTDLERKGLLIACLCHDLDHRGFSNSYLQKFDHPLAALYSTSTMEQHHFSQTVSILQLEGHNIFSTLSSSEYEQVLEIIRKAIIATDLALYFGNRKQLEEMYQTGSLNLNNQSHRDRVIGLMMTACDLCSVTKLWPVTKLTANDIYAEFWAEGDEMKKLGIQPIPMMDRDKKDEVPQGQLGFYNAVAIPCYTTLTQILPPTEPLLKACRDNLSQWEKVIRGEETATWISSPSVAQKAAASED

In one assay the target is PDE10 from pig striatum (Sus scrofa, UniProt A0A287B941). The assay can be described thus: Inhibition of PDE10 from pig striatum (Method A / Method B), [3H]-cAMP SPA. In kind it is biochemical. Particulars: read-out: PDE10 inhibition IC50 PDE10 pig. As to the method:
Striatum from male Wistar rats (180-200 g), male hybrid pigs (150 kg) and male guinea pigs (CRL (HA), 500 g) respectively were collected and frozen at −70° C. […] The supernatant is called the cytosolic fraction and was removed and stored on ice. The pellet was resuspended in the same buffer, but containing 1% Triton and incubated for 45 min at 4° C. Both fractions were independently applied onto a 5 ml Hi Trap™ QHP column at the Äkta-FPLC. After washing the columns the bound PDE protein was eluted with an increasing sodium chloride gradient (0 mM-500 mM sodium chloride) in 50 mM Tris/Mg-buffer at 4° C. for the cytosolic fraction and in the presence of 1% Triton for the membrane fraction. […] The fractions with PDE10-activity were pooled and frozen in aliquots until use at −20° C. PDE10 activity was determined in a one step procedure in microtiter plates. The reaction mixture of 100 μl contained 50 mM Tris-HCl/5 mM MgCl2 buffer (pH=7.4) (Sigma, Deisenhofen, Germany; Merck, Darmstadt, Germany) 0.1 μM [^3H]-cAMP (Amersham, Buckinghamshire, UK) and the enzyme. Nonspecific activity was tested without the enzyme. The reaction was initiated by addition of the substrate solution and was carried out at 37 ° C. for 30 minutes. Enzymatic activity was stopped by addition of 25 μl YSi-SPA-beads (Amersham-Pharmacia). One hour later the mixture was measured in a liquid scintillation counter for microtiter plates (Microbeta Trilux). To pipette the incubation mixture a robot Biomek (Fa. Beckman) is used. […] For the test with cGMP 500 nM of this substrate was used. The optimal amount of enzyme in the assay has been determined and optimised for each enzyme preparation and substrate separately before using the enzyme in compound testing. For determination of IC50 values the Hill-plot, 2-parameter-model, was used. […] Striatum from male hybrid pigs (150 kg) were collected and frozen at −70° C. […] The supernatant was removed and the pellet was resuspended in the same buffer, but containing 1% Triton and incubated for 45 min at 4° C. The membrane fraction was applied onto a 5 ml Hi Trap™ QHP column at the Äkta-FPLC. After washing the column the bound PDE protein was eluted with an increasing sodium chloride gradient (0 mM-500 mM sodium chloride) in 50 mM Tris/Mg-buffer at 4° C. in the presence of 1% Triton. […] The fractions with PDE10-activity were pooled and frozen in aliquots until use at −20° C. PDE10 activity was determined in a one step procedure in microtiterplates. The reaction mixture of 100 μl contained 50 mM Tris-HCl/5 mM MgCl2 buffer (pH=7.4) (Sigma, Deisenhofen, Germany; Merck, Darmstadt, Germany) 0.1 μM [3H]-cAMP (Amersham, Buckinghamshire, UK) and the enzyme. Nonspecific activity was tested without the enzyme. The reaction was initiated by addition of the substrate solution and was carried out at 37° C. for 30 minutes. Enzymatic activity was stopped by addition of 25 μl YSi-SPA-beads (Amersham-Pharmacia). One hour later the mixture was measured in a liquid scintillation counter for microtiterplates (Microbeta Trilux). To pipette the incubation mixture a robot Biomek (Fa. Beckman) is used. […] The optimal amount of enzyme in the assay has been determined and optimised for each enzyme preparation before using the enzyme in compound testing. For determination of IC50 values the Hill-plot, 2-parameter-model, was used.

The next assay addresses human recombinant PDE10A (Homo sapiens, UniProt Q9Y233). The assay can be described thus: Inhibition of human recombinant PDE10A (Method B), [3H]-cAMP SPA. In kind it is biochemical. Particulars: read-out: PDE10 inhibition IC50 PDE10A human.

Molecules are shown by their SMILES. Some results are limits rather than exact numbers.

In general, IC50 refers to the point on the concentration scale where inhibition reaches its midpoint.

`CCc1nc(C)c2c(Cl)nc3ccc(F)cc3n12`: at PDE10 from pig striatum, the IC50 is 10 to 100 nM. Consider `Cc1nc(-c2ccccc2Cl)n2c1c(Cl)nc1ccc(F)cc12`, for which the IC50 at PDE10 from pig striatum is less than 10 nM.

`CCCc1nc(C)c2c(Cl)nc3c(OCC(F)(F)F)cc(OCC(F)(F)F)cc3n12`: the IC50 on PDE10 from pig striatum and at human recombinant PDE10A was more than 100 nM throughout. On to `CCCc1nc(C)c2c(Cl)nc3ccc(N4CCCCC4)cc3n12`, for which, at PDE10 from pig striatum, the IC50 was 10 to 100 nM. Regarding `CCCc1nc(C)c2c(Cl)nc3ccccc3n12`, on PDE10 from pig striatum, the IC50 is 10 to 100 nM.
